# Ab-14 heavy chain CDR variants: yeast mating affinities

All variants were tested on one target, the spike HR2 peptide PDVDLGDISGINAS (SARS-CoV-2).

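The starting antibody came from a phage panning campaign against this peptide. Variants in AAYL49 differ from the parent at up to three CDR positions; double and triple changes were sampled at random. AlphaSeq pools MATa yeast showing the antibodies with MATalpha yeast showing the peptide. Binding brings cells together so that they mate, and sequencing counts the barcode pairs among the diploids. The ratio of observed to expected reads was calibrated, replicate by replicate, on BCL2-family standards whose Kd was known from biolayer interferometry. Mating was done three times.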

Each scFv is VH, the linker GGGGSGGGGSGGGGS, VL, as in the parent Ab-14, and differs from it in the CDRs of the heavy chain only.
VH: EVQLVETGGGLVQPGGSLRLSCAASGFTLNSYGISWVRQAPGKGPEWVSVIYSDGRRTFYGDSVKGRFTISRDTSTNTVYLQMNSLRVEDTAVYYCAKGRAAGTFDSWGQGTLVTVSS
VL: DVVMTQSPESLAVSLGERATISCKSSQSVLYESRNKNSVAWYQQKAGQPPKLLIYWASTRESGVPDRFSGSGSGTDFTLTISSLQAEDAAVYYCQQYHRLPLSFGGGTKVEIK

Each variant is given by its three heavy chain CDRs, as the data file delimits them; those of the parent are GFTLNSYGIS, VIYSDGRRTFYGDSVK, GRAAGTFDS. Affinities are written as log10 Kd with Kd in nM; a lower number is a better binder. A mean of the replicates is given; it leaves out those without a signal. An entry "n.d." has no value in the source: the pair was not observed among the diploids in that replicate. This suggests poor binding but is not conclusive. Entries are sorted by rising average, undetected variants last. Empty control strains, which show no peptide, gave a signal in 15% of pairings with library AAYL49; the median was 4.06 and 95% of these signals were weaker than 2.83. No background was subtracted. Also given: how often the same scFv was detected with the empty control strains, with their mean in brackets.

{"CDR-H1": "GFTLNVRGIS", "CDR-H2": "VIYSDGRRLFYGDSVK", "CDR-H3": "GRAAGTFDS", "replicates, log10 nM": "0.66 / 1.45 / 1.18", "mean log10 Kd (nM)": "1.09", "control signals": "0 of 9"}
{"CDR-H1": "GFTPNSYGIS", "CDR-H2": "VIYSDGRRTFYGDSVK", "CDR-H3": "GRADTTFDS", "replicates, log10 nM": "n.d. / 2.70 / 2.06", "mean log10 Kd (nM)": "2.38", "control signals": "2 of 9 (4.03)"}
{"CDR-H1": "GFTLNHYGIS", "CDR-H2": "VIYSDGRLTFYRDSVK", "CDR-H3": "GRAAGTFDS", "replicates, log10 nM": "3.18 / n.d. / n.d.", "mean log10 Kd (nM)": "3.18", "control signals": "0 of 9"}
{"CDR-H1": "GFTLNSRGIS", "CDR-H2": "LIYSDGRRTFYGDSSK", "CDR-H3": "GRAAGTFDS", "replicates, log10 nM": "n.d. / n.d. / 3.37", "mean log10 Kd (nM)": "3.37", "control signals": "2 of 9 (4.90)"}
{"CDR-H1": "GFTLNSMGIS", "CDR-H2": "VIYSDGRRTFYGDSVK", "CDR-H3": "GRAAGTFDT", "replicates, log10 nM": "4.24 / 3.15 / 2.91", "mean log10 Kd (nM)": "3.43", "control signals": "4 of 9 (3.97)"}
{"CDR-H1": "GFTLNSYGIS", "CDR-H2": "VIYSDGRRTFYGTSVK", "CDR-H3": "DRAAGTFGS", "replicates, log10 nM": "n.d. / 4.21 / n.d.", "mean log10 Kd (nM)": "4.21", "control signals": "1 of 9 (4.41)"}
{"CDR-H1": "GFTLNSYGIS", "CDR-H2": "VIYSDGERTFYGWSVK", "CDR-H3": "GRAAGTCDS", "replicates, log10 nM": "n.d. / 4.28 / n.d.", "mean log10 Kd (nM)": "4.28", "control signals": "0 of 9"}
{"CDR-H1": "GFTLNVYGIS", "CDR-H2": "TIYSDGRKTFYGDSVK", "CDR-H3": "GRAAGTFDS", "replicates, log10 nM": "4.33 / n.d. / 4.32", "mean log10 Kd (nM)": "4.32", "control signals": "1 of 9 (3.21)"}
{"CDR-H1": "GFTLNSDGIS", "CDR-H2": "VIYSDGRMTFYGDSVK", "CDR-H3": "GKAAGTFDS", "replicates, log10 nM": "4.67 / n.d. / n.d.", "mean log10 Kd (nM)": "4.67", "control signals": "4 of 9 (4.77)"}
{"CDR-H1": "GFTLPSYGIS", "CDR-H2": "VIYSDGGFTFYGDSVK", "CDR-H3": "GRAAGTFDS", "replicates, log10 nM": "5.30 / 4.28 / n.d.", "mean log10 Kd (nM)": "4.79", "control signals": "6 of 9 (4.19)"}
{"CDR-H1": "WFTLNSYGIS", "CDR-H2": "VISSDGRDTFYGDSVK", "CDR-H3": "GRAAGTFDS", "replicates, log10 nM": "n.d. / n.d. / n.d.", "mean log10 Kd (nM)": "n.d.", "control signals": "0 of 9"}
{"CDR-H1": "GFWLNSEGIS", "CDR-H2": "VIYSDGRRTFYGDSVK", "CDR-H3": "GRGAGTFDS", "replicates, log10 nM": "n.d. / n.d. / n.d.", "mean log10 Kd (nM)": "n.d.", "control signals": "1 of 9 (5.48)"}
{"CDR-H1": "GFTLNSYWIS", "CDR-H2": "VIYSDGRRTFYGDSVK", "CDR-H3": "RRAAGTFDQ", "replicates, log10 nM": "n.d. / n.d. / n.d.", "mean log10 Kd (nM)": "n.d.", "control signals": "0 of 9"}
{"CDR-H1": "GFTFNSYGIS", "CDR-H2": "VIYSDGRRTFYGDSVK", "CDR-H3": "GRAAGKIDS", "replicates, log10 nM": "n.d. / n.d. / n.d.", "mean log10 Kd (nM)": "n.d.", "control signals": "0 of 9"}
{"CDR-H1": "KFTLNSYGIM", "CDR-H2": "VIYSDGRRTFYGDSVK", "CDR-H3": "GRAAGTFDL", "replicates, log10 nM": "n.d. / n.d. / n.d.", "mean log10 Kd (nM)": "n.d.", "control signals": "0 of 9"}
{"CDR-H1": "GFTLNSYIIS", "CDR-H2": "VIYSDGRRTFYGDSQK", "CDR-H3": "GRAAGTFNS", "replicates, log10 nM": "n.d. / n.d. / n.d.", "mean log10 Kd (nM)": "n.d.", "control signals": "1 of 9 (2.25)"}
{"CDR-H1": "GFTLNSYGIS", "CDR-H2": "VIYSDIMRTFYLDSVK", "CDR-H3": "GRAAGTFDS", "replicates, log10 nM": "n.d. / n.d. / n.d.", "mean log10 Kd (nM)": "n.d.", "control signals": "1 of 9 (3.23)"}
{"CDR-H1": "GFTLNRYQIS", "CDR-H2": "VIYSDGRRTFYGDSVK", "CDR-H3": "GRAAGTFDS", "replicates, log10 nM": "n.d. / n.d. / n.d.", "mean log10 Kd (nM)": "n.d.", "control signals": "0 of 9"}
{"CDR-H1": "GFTLVSYGIS", "CDR-H2": "VIYSDGRRNFGGDSVK", "CDR-H3": "GRAAGTFDS", "replicates, log10 nM": "n.d. / n.d. / n.d.", "mean log10 Kd (nM)": "n.d.", "control signals": "0 of 9"}
{"CDR-H1": "GFTLNSYLDT", "CDR-H2": "VIYSDGRRTFYGDSVK", "CDR-H3": "GRAAGTFDS", "replicates, log10 nM": "n.d. / n.d. / n.d.", "mean log10 Kd (nM)": "n.d.", "control signals": "2 of 9 (3.44)"}
{"CDR-H1": "GFILNSYGIS", "CDR-H2": "VIYSDGRRTFYGDEVK", "CDR-H3": "GRAAGPFDS", "replicates, log10 nM": "n.d. / n.d. / n.d.", "mean log10 Kd (nM)": "n.d.", "control signals": "1 of 9 (4.00)"}
{"CDR-H1": "GFTLNSYGIS", "CDR-H2": "VIYSHGRRTFYGDSVK", "CDR-H3": "GRAAGQFDS", "replicates, log10 nM": "n.d. / n.d. / n.d.", "mean log10 Kd (nM)": "n.d.", "control signals": "0 of 9"}
{"CDR-H1": "GFTLNSYGIE", "CDR-H2": "VIYSDGRRTFYGDSVK", "CDR-H3": "GRAAGTFIS", "replicates, log10 nM": "n.d. / n.d. / n.d.", "mean log10 Kd (nM)": "n.d.", "control signals": "0 of 9"}
{"CDR-H1": "GFTLNSYGIS", "CDR-H2": "VILSDGRRTFYGDSVK", "CDR-H3": "GRAAGTFDN", "replicates, log10 nM": "n.d. / n.d. / n.d.", "mean log10 Kd (nM)": "n.d.", "control signals": "1 of 9 (4.37)"}
{"CDR-H1": "GFTLNSYGIS", "CDR-H2": "VIYSGGRRTFYGDSVK", "CDR-H3": "GRAAGTFDL", "replicates, log10 nM": "n.d. / n.d. / n.d.", "mean log10 Kd (nM)": "n.d.", "control signals": "3 of 9 (4.23)"}
{"CDR-H1": "GFTLNSYGIS", "CDR-H2": "VIYYDGRRTFYGDSVM", "CDR-H3": "GRAAGTTDS", "replicates, log10 nM": "n.d. / n.d. / n.d.", "mean log10 Kd (nM)": "n.d.", "control signals": "0 of 9"}
{"CDR-H1": "GFTLNSYCIS", "CDR-H2": "VIYSDRRRTFYGDSVK", "CDR-H3": "GRAANTFDS", "replicates, log10 nM": "n.d. / n.d. / n.d.", "mean log10 Kd (nM)": "n.d.", "control signals": "0 of 9"}

Excerpt, the first 2 entries:

CDR-H1,CDR-H2,CDR-H3,"replicates, log10 nM",mean log10 Kd (nM),control signals
GFTLNVRGIS,VIYSDGRRLFYGDSVK,GRAAGTFDS,0.66 / 1.45 / 1.18,1.09,0 of 9
GFTPNSYGIS,VIYSDGRRTFYGDSVK,GRADTTFDS,n.d. / 2.70 / 2.06,2.38,2 of 9 (4.03)

Reference: Engelhart et al. 2022, doi:10.1038/s41597-022-01779-4. File: FLAb, binding data.